Binding of CDR-mutated scFvs to a peptide of the spike HR2 region

Values reported by Engelhart et al. 2022, doi:10.1038/s41597-022-01779-4 (FLAb copy).

Target peptide (SARS-CoV-2 spike, HR2 region): PDVDLGDISGINAS

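Phage display of a naive human antibody library on the peptide gave the parent. Variants in AAYL50 differ from the parent at up to three CDR positions; double and triple changes were sampled at random. Affinity was read by AlphaSeq, a pooled yeast mating assay with surface-displayed partners. Pairs that bind mate more often; barcode pairs of the diploids are counted by sequencing. Each replicate has its own calibration line, from reference interactions of the BCL2 family. Each pool was mated in three replicate cultures.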

Ab-14 is the parent antibody, in scFv form: VH, then a (GGGGS)3 linker, then VL. The heavy chain is unchanged in all variants.
VH: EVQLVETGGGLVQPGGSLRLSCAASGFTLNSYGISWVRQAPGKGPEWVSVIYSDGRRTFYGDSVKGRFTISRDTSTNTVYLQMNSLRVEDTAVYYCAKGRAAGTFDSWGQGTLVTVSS
VL: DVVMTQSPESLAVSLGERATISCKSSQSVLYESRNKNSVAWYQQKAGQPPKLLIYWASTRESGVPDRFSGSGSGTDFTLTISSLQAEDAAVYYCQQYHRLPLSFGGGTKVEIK

Each variant is given by its three light chain CDRs, as the data file delimits them; those of the parent are KSSQSVLYESRNKNSVA, WASTRES, QQYHRLPLS. Numbers give log10(Kd / nM), so 0 is 1 nM and 3 is 1 µM. Smaller is tighter. The mean shown is taken over the replicates in which the pair was detected. A pair that was not seen in that replicate is written "n.d."; this usually means weak binding, but a binder can also be missed. In this assay the parent's reference entry averaged 0.65; its copy inside this library read 1.68.

| CDR-L1 | CDR-L2 | CDR-L3 | replicates, log10 nM | mean, log10 nM | signal with controls |
|---|---|---|---|---|---|
| KSGQSVLYESRNKNSVA | CASTRES | QQYHRLPLS | 3.75 3.47 3.85 | 3.69 | 3 of 9 (4.67) |
| KSSQSYLYESRNKPSVA | WASTREP | QQYHRLPLS | 3.04 1.52 2.18 | 2.25 | 1 of 9 (2.77) |
| KSSQSVFYESRNKNSVA | WASTRES | QQYDRLPCS | n.d. n.d. n.d. | n.d. | 2 of 9 (4.22) |
| KSSQSVLYESRNKNSVA | AASTRES | QQYHRLPLS | 0.17 0.42 0.28 | 0.29 | 6 of 9 (5.16) |
| KSSQSVLYYSLNKGSVA | WASTRES | QQYHRLPLS | n.d. n.d. n.d. | n.d. | 2 of 9 (2.49) |
| KSCQSVLYESRNKNSVS | WASTRES | QQYHRLPTS | n.d. n.d. n.d. | n.d. | 0 of 9 |
| KHSQSVLYESRNKNSFA | WASTRES | QQYHRLPLC | 5.96 3.14 n.d. | 4.55 | 5 of 9 (4.63) |
| LSSQSHLYESRNKNSVA | RASTRES | QQYHRLPLS | 0.83 0.98 0.97 | 0.93 | 2 of 9 (5.18) |
| KSSQSVLYELRNKNSVA | WASTGES | QQYHRLPSS | n.d. n.d. n.d. | n.d. | 0 of 9 |
| KSSQCTLYCSRNKNSVA | WASTRES | QQYHRLPLS | 4.14 2.95 3.44 | 3.51 | 4 of 9 (3.56) |
| DSSQSVLYESRNPNSVA | WAFTRES | QQYHRLPLS | n.d. n.d. n.d. | n.d. | 0 of 9 |
| KSSQSVLYESRHVNSVA | WAKTRES | QQYHRLPLS | 1.44 1.48 1.59 | 1.51 | 1 of 9 (3.90) |
| KSSQSVLYESRNKNSTA | WASTRES | MQYHRLPLC | n.d. n.d. n.d. | n.d. | 0 of 9 |
| KSSQSVLYESRNKNSVA | WAVTRES | HQYHRRPLS | 0.69 0.94 0.78 | 0.80 | 1 of 9 (4.75) |
| KSSQSVLYESRNKVSVA | YASTRES | QQEHRLPLS | n.d. 3.42 n.d. | 3.42 | 1 of 9 (3.65) |
| KASQSVLYSSRNKNFVA | WASTRES | QQYHRLPLS | 2.77 n.d. 2.08 | 2.42 | 1 of 9 (2.24) |
| KSSQSVLYNSRNKNSVE | WASTRES | QQYIRLPLS | 4.72 4.94 4.90 | 4.85 | 5 of 9 (4.79) |
| KSSQSVLVESRNKASVA | WASTRES | QQYHRLPNS | 0.73 0.87 0.76 | 0.79 | 6 of 9 (5.48) |
| KSSQSVLYESRNKNSVA | WAVTRKS | QQYHRLPLS | n.d. 3.01 n.d. | 3.01 | 0 of 9 |
| KSSQSVRYESRCKNSVA | WASTRES | CQYHRLPLS | n.d. n.d. n.d. | n.d. | 0 of 9 |
| KSSQSVLYMSRNKNSRA | WASTRES | QQYHRLPLS | n.d. n.d. n.d. | n.d. | 0 of 9 |
| KSSQSVLEESRNKNSVA | WASTRES | QQYHRLPLS | 0.23 0.46 0.42 | 0.37 | 6 of 9 (4.33) |
| KSSQSVLYESRNKNIVA | WASTRES | QDYHRLILS | n.d. n.d. n.d. | n.d. | 0 of 9 |
| KSSQSVLYNSRNKNYVA | WASTRES | QQYHRLPLS | 2.97 2.99 4.37 | 3.45 | 3 of 9 (3.87) |
| KSSQSVLYESRNKNNVA | WASTRES | RQYHRLPVS | n.d. 4.56 n.d. | 4.56 | 1 of 9 (4.58) |
| KSSQSVLYEYRNKNSVA | WACTRER | QQYHRLPLS | 4.73 3.31 2.92 | 3.65 | 1 of 9 (4.57) |
| KSSQSVLYESRNMPSVA | WASTRWS | QQYHRLPLS | 3.63 2.60 2.68 | 2.97 | 2 of 9 (3.77) |
| ESSQSVLYESRNKNSVA | WASTREK | QQYIRLPLS | 3.26 3.46 3.11 | 3.28 | 2 of 9 (4.29) |
| KSSQSVLYESRNKNSVV | WDSTRES | QQYHRLFLS | n.d. n.d. n.d. | n.d. | 0 of 9 |
| KSSQSVLYESRNKNSVD | WASTRES | TQYHRLALS | n.d. n.d. 3.50 | 3.50 | 0 of 9 |
| KHSQSVLYESRNKVSVA | WASTRES | CQYHRLPLS | n.d. 3.24 n.d. | 3.24 | 0 of 9 |
| KSSQSVYYESRNKNSVA | WASTRES | QQYHRLPLS | 0.80 0.94 0.57 | 0.77 | 1 of 9 (3.01) |
| KSSQSVEYESRNKNSWA | WAMTRES | QQYHRLPLS | n.d. n.d. n.d. | n.d. | 0 of 9 |
| KSSQSWLYESRNKGSVA | WASTRES | QQYHRLPLS | 1.23 1.07 1.72 | 1.34 | 0 of 9 |
| IRSQSVLYESRNKNSVA | WASTHES | QQYHRLPLS | n.d. 2.79 n.d. | 2.79 | 1 of 9 (2.68) |
| KSSQSVLYESLNKNSVA | KASTRES | QRYHRLPLS | 1.30 1.47 1.30 | 1.36 | 5 of 9 (4.64) |
| KTSQSVLYESRNKASVA | WNSTRES | QQYHRLPLS | 2.40 2.66 2.83 | 2.63 | 0 of 9 |
| KSSQSVLYEYRNKNSVA | CASKRES | QQYHRLPLS | 3.18 2.68 3.75 | 3.20 | 3 of 9 (3.99) |
| KSSQSFLYESRWKNSVA | WASTREH | QQYHRLPLS | 1.28 1.59 0.95 | 1.27 | 0 of 9 |
| KSSQSVLYESENKNSVA | WASTRPS | QQPHRLPLS | 0.07 0.65 0.44 | 0.39 | 0 of 9 |
| KSSQSVFYESRNKNDVA | WFSTRES | QQYHRLPLS | 4.80 n.d. 3.42 | 4.11 | 5 of 9 (4.10) |
| KSTFSVLYESRNKNSVA | WACTRES | QQYHRLPLS | n.d. n.d. n.d. | n.d. | 0 of 9 |
| KSSDSVLYESRNKNSCA | WASTRES | QQYHRLPLS | 4.38 n.d. 3.60 | 3.99 | 3 of 9 (4.23) |

Three control strains display no target. For library AAYL50, 18% of the pairings with them gave a signal, with a median of 4.19 and one signal in twenty below 2.99, so weak values seen in few replicates may be background. Also given: how often the same scFv was detected with the empty control strains, with their mean in brackets.